The values below come from PubChem BioAssay AID588855 (National Center for Advancing Translational Sciences (NCATS), 2011).

The list shows a part of the results, in another mix than the full data. Results filed as inconclusive are left out. Where a call stands in place of a potency, no number is given. Active and inactive are the calls of the source. Calls follow the shape of the dose curve; as a rule, active = well fitted inhibition curve with a large enough effect; inconclusive = small, poorly fitted or top-dose-only effect; inactive = no such curve, though single readings can be large or run the other way.
Potency is read from the fitted curve at half-maximal effect.

A short description of this assay: qHTS for Inhibitors of TGF-b. Also: nearly all actives have a fitted effect of over 65% in size. As to conditions: HepG2 CAGA-GFP TGF-b/SMAD3 reporter, GFP fluorescence, 18 h, TGF-beta stimulated, 500 pg/mL final; series mostly up to 46.1 µM. A general note: qHTS replaces the single test concentration by a dilution series.
In the case of `O=P1(Nc2ccccn2)COc2ccccc2OC1`, the Potency result is “inactive”.

Regarding `CCOP(=O)(NC(=NC(C)c1ccccc1)NC(C)c1ccccc1)OCC` (stereo not drawn), the Potency entry is “inactive”.

With `CN(CCCl)Cc1cc(Cl)c(NC2=NCCN2)c(Cl)c1`, the Potency result is “inactive”.

For `CCOP(=O)(Nc1ccc(C)cn1)OCC`, the Potency entry is “inactive”.

Regarding `Clc1n[nH]nc1-c1nn[nH][15n]1`, the Potency entry was “inactive”.

As to `O=P1(N(CCCl)CCCl)NCCC(C(F)(F)F)O1` (stereo not drawn), the Potency result is “inactive”.

As for `CC(C)(C)C(=O)NC(Sc1ncccn1)C(Cl)(Cl)Cl` (stereo not drawn), the Potency entry is “inactive”.

On to `COc1ccccc1CNC(=O)COC(=O)C(O)(c1ccccc1)c1ccccc1`, for which the Potency result was “inactive”.

Regarding `CN(C(=O)Cc1ccc(Cl)c(Cl)c1)[C@@H]1CCCC[C@H]1N1CCCC1`, the Potency entry is “inactive”.

For `CC(C)/C=N\N=C(\N)N[N+](=O)[O-]`, the Potency result is “inactive”.

Take `CC1(CBr)Cn2c(nc3ccccc3c2=O)S1` (stereo not drawn): the Potency entry was “inactive”.

In the case of `Cc1nn(-c2ccccc2)c2c1P(=O)(N1CCOCC1)N(C)C(c1ccccc1)=N2` (stereo not drawn), the Potency entry was “inactive”.

With `CC1CCC(C(C)C)C(OP(=O)(Nc2ccccn2)c2ccccc2)C1` (stereo not drawn), the Potency was active: 17.8 µM.

`CN(C)C1(CNC(=O)c2ccc(S(C)(=O)=O)cc2)CCCCC1`: the Potency entry was “inactive”.

In the case of `O=C(/C=C/c1ccccc1)OC1CN2CCC1CC2` (stereo not drawn), the Potency result was “inactive”.

For the molecule `CCCC1OP(=O)(Nc2ccccc2)OCC1CC` (stereo not drawn), the Potency result is “inactive”.

With `Cc1ccc(S(=O)(=O)N(CCCN)CCCc2c(C)nc(N)[nH]c2=O)cc1`, the Potency entry was “inactive”.

`O=P1(Nc2ncccn2)COc2ccccc2OC1`: the Potency entry was “inactive”.

Take `Nc1cccc([As](=O)(O)c2ccccc2)c1`: the Potency entry was “inactive”.

For the molecule `NS(=O)(=O)c1cccc(NC(=O)COC(=O)C(O)(c2ccccc2)c2ccccc2)c1`, the Potency result is “inactive”.

As for `O=P1(Nc2ccc(Br)cn2)COc2ccccc2OC1`, the Potency result was “inactive”.

On to `O=[As](O)(c1cccs1)c1cccs1`, for which the Potency result was “inactive”.

With `Cc1ccc(OCC(=O)OC2CN3CCC2CC3)cc1` (stereo not drawn), the Potency entry was “inactive”.

Turning to `CCOP1(=S)c2c(C)nn(CCC#N)c2N=C(c2ccccc2F)N1C` (stereo not drawn), the Potency result was “inactive”.

With `O=P(Nc1nccs1)(c1ccccc1)c1nc2ccccc2s1` (stereo not drawn), the Potency was active: 11.2 µM.

Regarding `O=P(Nc1nccs1)(Oc1ccccc1)Oc1ccccc1`, the Potency entry is “inactive”.

Consider `CS(=O)(=O)c1cc([N+](=O)[O-])c2no[n+]([O-])c2c1`, for which the Potency entry was “inactive”.

Take `O=C(O)COc1ccc([As](=O)(O)O)cc1[N+](=O)[O-]`: the Potency result is “inactive”.

As for `NC(=O)Nc1ccc([As](=O)(O)O)cc1`, the Potency entry is “inactive”.

Regarding `N#CCCN(C(=O)COC(=O)C(O)(c1ccccc1)c1ccccc1)c1ccc(F)cc1`, the Potency result was “inactive”.

As for `CCOP1(=S)c2c(C)nn(CCC#N)c2N=C(c2ccc(F)cc2)N1C` (stereo not drawn), the Potency entry is “inactive”.

`CN(C(=O)Cc1ccccc1)[C@@H]1CC[C@]2(CCCO2)C[C@H]1N1CCCC1`: the Potency result was “inactive”.

With `O=[N+]([O-])c1ccc2c(c1)nnn2O`, the Potency entry was “inactive”.
